From PubChem BioAssay AID1259422 (The Scripps Research Institute Molecular Screening Center, 2018)
The list shows a part of the results, in another mix than the full data. Calls of active or inactive are those of the source. Rule as the data show it: active = inhibition above about 32%; inactive = the rest.

experiment: TEAD-YAP interaction inhibition, primary screen, TEAD-YAP interaction inhibitor project, luminescence, HEK-TIYL cells (AID 1259422); settings: TEAD-Gal4/YAP UAS-luciferase luminescence, at 9.12 µM, hits give high values;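 also: 0% = median of test compound wells and 100% = reference inhibitor wells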

Compound | inhibition
CN(CCCl)CCCl | inactive: -3.09%
